Bioassay records: PubChem BioAssay, National Center for Advancing Translational Sciences (NCATS)
uPA surface inh: inhibitors of cell surface uPA generation; cell surface uPA generation assay, qHTS; Potency, µM (doses to about 38.3 µM), for inactives: at the highest dose activity change, negative = inhibition, actives largely listed as inhibitors; hit rate 0.31% among 330,000; AID 540303; active = well fitted inhibition curve with a large enough effect; inconclusive = small, poorly fitted or top-dose-only effect; inactive = no such curve, though single readings can be large or run the other way; tested in mouse RAW 264.7 cells; note: potency is the fitted concentration of half-maximal effect; % is set by controls: 0 for no effect and ±100 for the full control effect; nearly all actives have a fitted effect of over 55% in size
DT40 TDP1 CPT: DT40-hTDP1 cell growth loss with CPT | chicken DT40 Tdp1-/-;hTDP1 cells + 20 nM CPT, ATP luminescence, 48 h | Potency, µM (doses to about 46.2 µM), for inactives: at the highest dose activity change, negative = growth inhibition, usual class: inhibitors | hit rate 12% among 420,000 | AID 686979; note: potency is the fitted concentration of half-maximal effect; % is set by controls: 0 for no effect and ±100 for the full control effect; nearly all actives have a fitted effect of over 55% in size
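Cell growth measured by CellTiter-Glo luminescence after a minimum 48 h, 37 C compound exposure with 20 nM CPT in Tdp1-knockout DT40 cells stably expressing hTDP1, seeded 400/well; qHTS titration format.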
DT40 TDP1 no CPT: qHTS for Inhibitors of human tyrosyl-DNA phosphodiesterase 1 (TDP1): qHTS in cells in absence of CPT; DT40 Tdp1-/- hTDP1 cells, no CPT, ATP luminescence, 48 h; Potency, µM (titrated, usually from 46.2 µM), for the others: at the highest dose activity change, negative = growth inhibition, actives largely listed as inhibitors; hit rate 15% among 420,000; AID 686978, 2013; note: potency is the fitted concentration of half-maximal effect; % is set by controls: 0 for no effect and ±100 for the full control effect; nearly all actives have a fitted effect of over 55% in size
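Stably hTDP1-transfected Tdp1-null chicken DT40 cells were treated with library compounds minus camptothecin and grown for at least 48 hr at 37 °C, after which cellular ATP was quantified by luminescence.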
TDP1 block: inhibitors of human tyrosyl-DNA phosphodiesterase TDP1; Q9NUW8; recombinant TDP1, AlphaScreen DNA substrate cleavage; Potency, µM (highest dose often 130 µM), for inactives: at the highest dose activity change, negative = inhibition, usual class: inhibitors; hit rate 0.28% among 350,000; note: potency is the fitted concentration of half-maximal effect; % is set by controls: 0 for no effect and ±100 for the full control effect; nearly all actives have a fitted effect of over 40% in size
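Signal: AlphaScreen proximity between streptavidin donor and anti-FITC acceptor beads on intact substrate. Reaction: Tdp1 1 nM, substrate 15 nM final, 5 min RT after 15 min compound preincubation.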
miR-21 reporter: raises the signal of a miR-21 reporter. Potency, µM (highest dose often 38.3 µM), without a hit: top-dose reporter change, positive = more light. 340,000 tested, under 10 active. HeLa miR-21 FLuc reporter, luciferase, 48 h; active = well fitted rising curve with a large enough effect; inconclusive = small, poorly fitted or top-dose-only effect; inactive = no such curve, though single readings can be large or run the other way;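 further: % of control where 0% means no effect; miR-21 action dims this reporter so a rising signal means less miR-21 action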
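Using DMEM plus 10% FBS, HeLa miR-21-FLuc cells are incubated with test compounds (final up to about 40uM) for 48 hours; firefly luciferase signal is then imaged following reagent-mediated lysis.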
* marks the source's active call; other numbers are inactive results; ? = inconclusive; / = no result given; [ ] = another dose, or the depositor's remark. Compounds with a hit are over-represented: about 16% of the library has one in this group of screens. Unless noted, calls come from the whole dose curve; as a rule, active = well fitted curve in the direction sought with a large enough effect; inconclusive = small, poorly fitted or top-dose-only effect, or another doubt; inactive = no such curve, though single readings can be large; an effect the other way counts as inactive or inconclusive.

SMILES	uPA surface inh	DT40 TDP1 CPT	DT40 TDP1 no CPT	TDP1 block	miR-21 reporter
C=CCn1c(=O)c2ccccc2n2c(SCC(=O)Nc3cc(C)on3)nnc12	-2%	?	?	5%	-3%
C=CCn1c(=O)c2ccccc2n2c(SCC(=O)/C(C#N)=C(\C)N)nnc12	1%	0%	-13%	0%	2%
C=CCn1c(C)cc(C(=O)CSc2nnc3n(CCC)c(=O)c4ccccc4n23)c1C	0%	21µM*	18µM*	/	/
C=CCn1c(=O)c2ccccc2n2c(SC(C)C(N)=O)nnc12 (stereo unspecified)	5%	24%	1%	/	1%
CCOC(=O)c1c(NC(=O)CSc2nnc(-c3ccccc3)n2CC)sc(C(C)=O)c1C	-13%	?	?	2%	-11%
C=CCn1c(=O)c2ccccc2n2c(SCC(=O)Nc3sc(C)c(CC)c3C(=O)OCC)nnc12	2%	?	16µM*	-3%	-12%
C=CCn1c(=O)c2ccccc2n2c(SC(C)C(=O)Nc3nc(-c4ccccc4)cs3)nnc12 (stereo unspecified)	3%	9.2µM*	3.7µM*	11%[56.1 µM]	-1%
COc1cc(NC(=O)Cn2cnc3c(NCc4ccccc4)ncnc32)cc(OC)c1OC	1%	3%	3%	-3%[56.1 µM]	/
COc1cc(C(=O)NNC(=S)NC(=O)c2ccccc2C)cc(OC)c1OC	-1%	16µM*	?	8%	16%
COc1ccccc1C(=O)NNC(=S)NC(=O)c1cc(OC)c(OC)c(OC)c1	?	18µM*	6.5µM*	9%	-5%
COc1cc(C(=O)NNC(=O)CCOc2ccccc2C)cc(OC)c1OC	2%	-2%	-18%	1%	/
COc1cc(C(=O)NC(=S)NNC(=O)[C@H]2C[C@@H]2c2ccccc2)cc(OC)c1OC	6%	-10%	-15%	11%	7%
CCOc1ccc(N=c2scc(-c3ccccc3)n2CCO)cc1	-23%	16µM*	23µM*	12%	-6%
CCOc1ccc(N=c2scc(-c3ccc(OC)cc3)n2CCO)cc1	1%	9.2µM*	?	0%	-1%
CCSc1nnc(-c2cccs2)o1	-9%	-8%	-16%	6%	-28%

Rewritten as a markdown table: entries from further up
| canonical_smiles | uPA surface inh | DT40 TDP1 CPT | DT40 TDP1 no CPT | TDP1 block | miR-21 reporter |
| --- | --- | --- | --- | --- | --- |
| C=CCn1c(=O)c2ccccc2n2c(SC(C)C(N)=O)nnc12 (stereo unspecified) | 5% | 24% | 1% | / | 1% |
| C=CCn1c(=O)c2ccccc2n2c(SCC(=O)Nc3cc(C)on3)nnc12 | -2% | ? | ? | 5% | -3% |

Further structures:
SMILES	uPA surface inh	DT40 TDP1 CPT	DT40 TDP1 no CPT	TDP1 block	miR-21 reporter
COc1cccc(-c2coc3cc4oc(=O)c(CCC(=O)O)c(C)c4cc23)c1	-9%	4%	-24%	/	-2%
CCCS(=O)(=O)N1CC(=O)N(c2ccc(C)cc2)C(C)(C(=O)NC2CCCCCC2)C1 (stereo unspecified)	/	?	?	4%	-10%
CNc1nc(NC#N)nc(SC)n1	4%	21µM*	?	/	-6%
CC(C)CN1C(=O)CSCC1(C)C(=O)NC(C)C (stereo unspecified)	/	31%	4%	/	/
COC(=O)C1(C(=O)OC)C[C@H](/C=C/c2ccccc2)N(Cc2ccccc2OC)[C@@H]1c1cccs1	/	26µM*	23µM*	/	/
COc1ccccc1CN1C2CCCC1CC(NC(=O)/C=C/c1ccccc1)C2 (stereo unspecified)	-9%	?	?	0%	-21%
CCN(CC)S(=O)(=O)c1ccc2c(c1)N(CC(=O)NCCCN1CCN(c3cc(C)ccc3C)CC1)C(=O)CO2	/	2.6µM*	4.6µM*	4%	28%
O=C(Cn1cccc1C(=O)c1ccccc1)NCCCN1CCOCC1	3%	-25%	-16%	7%	-4%
O=C(CCN1C(=O)COc2ccccc21)NCCCN1CCN(c2ccccc2F)CC1	-4%	18µM*	?	-2%	-5%
CCCN1CCN(CCCNC(=O)CCN2C(=O)COc3ccccc32)CC1	0%	7%	9%	1%	0%
CCN(CC)S(=O)(=O)c1ccc2c(c1)N(CC(=O)NCCCN1CCN(c3ccccc3F)CC1)C(=O)CO2	/	23µM*	?	1%	-6%
Cc1ccc(C)c(N2CCN(CCCNC(=O)Cn3cccc3C(=O)c3ccccc3)CC2)c1	?	5.2µM*	5.2µM*	5%	4%
COc1cccc(NC(=O)CN(C)C(=O)C(Sc2ccccc2)c2ccccc2)c1 (stereo unspecified)	2%	-25%	?	2%	/

3 entries out of the list, ordered by length of the SMILES, descending.
SMILES	uPA surface inh	DT40 TDP1 CPT	DT40 TDP1 no CPT	TDP1 block	miR-21 reporter
Cc1ccc(C)c(N2CCN(CCCNC(=O)Cn3cccc3C(=O)c3ccccc3)CC2)c1	?	5.2µM*	5.2µM*	5%	4%
CCCN1CCN(CCCNC(=O)CCN2C(=O)COc3ccccc32)CC1	0%	7%	9%	1%	0%
CNc1nc(NC#N)nc(SC)n1	4%	21µM*	?	/	-6%
